Measurements as given in patent publication US20050095279A1, “Transdermal analgesic systems having reduced abuse potential” (published 2005).

Test: Bioequivalence study, Example 15 fentanyl system vs DUROGESIC 100 μg/h (Example 31)
Details: Treatment B (100 μg/h, 42 cm^2), samples at and before 76 hours post-application, LC/MS/MS

Structure (SMILES): O=C1CC[C@@]2(O)[C@H]3Cc4ccc(O)c5c4[C@@]2(CCN3CC2CC2)[C@H]1O5
- naltrexone concentration in the serum samples: below the detectable levels
